The assay concerns the target Bcl-2 (Homo sapiens, UniProt P10415). Kind of assay: Ki determination for Bcl-2 (BCL-2 family binding spectrum). The conditions noted are these: TABLE 8. The text has this:
To assess the binding and affinity of compounds that antagonize the interaction between a peptide and an acceptor protein, a fluorescence polarization assay (FPA) utilizing a fluoresceinated peptidomimetic macrocycle derived from a peptidomimetic precursor sequence is used, for example. The FPA technique measures the molecular orientation and mobility using polarized light and fluorescent tracer. […] A compound that antagonizes the interaction between the fluoresceinated peptidomimetic macrocycle and an acceptor protein will be detected in a competitive binding FPA experiment.
For example, putative antagonist compounds (1 nM to 1 mM) and a fluoresceinated peptidomimetic macrocycle (25 nM) are incubated with the acceptor protein (50 nM) in binding buffer (140 mM NaCl, 50 mM Tris-HCL, pH 7.4) for 30 minutes at room temperature. Antagonist binding activity is measured, for example, by fluorescence polarization on a luminescence spectrophotometer (e.g. Perkin-Elmer LS50B). Kd values may be determined by nonlinear regression analysis using, for example, Graphpad Prism software (GraphPad Software, Inc., San Diego, Calif.).

Chains of the proteins cited; added tags and fusions are not shown.
UniProt P10415, whole entry, species assumed: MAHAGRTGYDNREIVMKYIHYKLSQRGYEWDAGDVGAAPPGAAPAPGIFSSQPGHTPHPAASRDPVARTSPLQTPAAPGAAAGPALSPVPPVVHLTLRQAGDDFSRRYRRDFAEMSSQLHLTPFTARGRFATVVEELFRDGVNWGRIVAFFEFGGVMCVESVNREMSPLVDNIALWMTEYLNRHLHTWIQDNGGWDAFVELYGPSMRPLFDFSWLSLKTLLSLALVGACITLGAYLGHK

The Ki is the dissociation constant of the complex between target and ligand, obtained from inhibition or displacement. Low values mean tighter binding, high ones weaker binding.

In the case of `CC1(C)CCC(c2ccc(Cl)cc2)=C(CN2CCN(c3ccc(C(=O)NS(=O)(=O)c4ccc(N[C@H](CCN5CCOCC5)CSc5ccccc5)c(S(=O)(=O)C(F)(F)F)c4)cc3)CC2)C1` [ABT-263, navitoclax, reference compound], the affinity, expressed as Ki, was 0.9 nM.
